Where two headings read alike, the source gives them in different places.
Key:
CYP3A4/5 [1] = assay: Direct CYP3A4/5 inhibition, midazolam 1′-hydroxylation in pooled human liver microsomes; settings: HLM, midazolam as probe substrate
CYP2C19 = CYP2C19 (Homo sapiens, UniProt P33261); assay: Direct CYP2C19 inhibition, S-mephenytoin 4′-hydroxylation in pooled human liver microsomes; settings: HLM
CYP2C8 = CYP2C8 (Homo sapiens, UniProt P10632); settings: HLM, amodiaquine
CYP3A4/5 [2] = assay: Direct CYP3A4/5 inhibition, testosterone 6β-hydroxylation in pooled human liver microsomes; settings: HLM, testosterone as probe substrate
CYP2B6 = CYP2B6 (Homo sapiens, UniProt P20813); assay: Direct CYP2B6 inhibition, bupropion hydroxylation in pooled human liver microsomes; settings: HLM
CYP2C9 = CYP2C9 (Homo sapiens, UniProt P11712); assay: Direct CYP2C9 inhibition, diclofenac 4′-hydroxylation in pooled human liver microsomes; settings: HLM
CYP2D6 = CYP2D6 (Homo sapiens, UniProt P10635); assay: Direct CYP2D6 inhibition, dextromethorphan O-demethylation in pooled human liver microsomes; settings: for CYP2D6 activity expressed as % Vehicle Control: HLM, dextromethorphan; for IC50: read-out: IC50, inhibition of CYP2D6, HLM 0.1 mg/mL, dextromethorphan 5 μM, direct inhibition

Protein sequences, listed by entry. Tags and fused reporters are not part of them.
UniProt P33261, whole entry: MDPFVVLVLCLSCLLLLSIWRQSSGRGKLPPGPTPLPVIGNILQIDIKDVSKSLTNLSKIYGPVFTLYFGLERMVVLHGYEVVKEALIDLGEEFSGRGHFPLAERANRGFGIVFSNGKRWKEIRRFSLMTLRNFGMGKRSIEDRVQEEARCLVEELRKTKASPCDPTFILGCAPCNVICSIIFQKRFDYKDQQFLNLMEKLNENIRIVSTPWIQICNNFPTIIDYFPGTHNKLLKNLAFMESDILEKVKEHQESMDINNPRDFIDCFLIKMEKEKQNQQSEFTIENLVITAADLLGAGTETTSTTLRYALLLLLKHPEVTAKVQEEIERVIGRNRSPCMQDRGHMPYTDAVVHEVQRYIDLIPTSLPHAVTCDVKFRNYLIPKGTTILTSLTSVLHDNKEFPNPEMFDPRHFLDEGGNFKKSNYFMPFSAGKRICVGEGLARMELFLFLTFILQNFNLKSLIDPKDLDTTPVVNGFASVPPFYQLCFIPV
UniProt P10632, whole entry: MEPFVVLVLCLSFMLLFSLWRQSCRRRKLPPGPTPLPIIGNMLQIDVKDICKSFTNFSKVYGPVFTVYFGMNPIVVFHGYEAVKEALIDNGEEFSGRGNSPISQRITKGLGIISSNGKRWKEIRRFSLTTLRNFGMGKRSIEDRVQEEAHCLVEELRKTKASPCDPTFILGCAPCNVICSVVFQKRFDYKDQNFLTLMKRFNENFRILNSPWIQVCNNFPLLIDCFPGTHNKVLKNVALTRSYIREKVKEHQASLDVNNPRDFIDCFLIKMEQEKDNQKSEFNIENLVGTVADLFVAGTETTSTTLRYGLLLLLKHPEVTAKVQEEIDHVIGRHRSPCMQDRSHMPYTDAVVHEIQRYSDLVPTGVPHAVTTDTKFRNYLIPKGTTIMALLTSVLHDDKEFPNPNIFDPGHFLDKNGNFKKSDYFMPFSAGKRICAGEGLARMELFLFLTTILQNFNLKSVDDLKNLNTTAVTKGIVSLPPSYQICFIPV
UniProt P20813, whole entry: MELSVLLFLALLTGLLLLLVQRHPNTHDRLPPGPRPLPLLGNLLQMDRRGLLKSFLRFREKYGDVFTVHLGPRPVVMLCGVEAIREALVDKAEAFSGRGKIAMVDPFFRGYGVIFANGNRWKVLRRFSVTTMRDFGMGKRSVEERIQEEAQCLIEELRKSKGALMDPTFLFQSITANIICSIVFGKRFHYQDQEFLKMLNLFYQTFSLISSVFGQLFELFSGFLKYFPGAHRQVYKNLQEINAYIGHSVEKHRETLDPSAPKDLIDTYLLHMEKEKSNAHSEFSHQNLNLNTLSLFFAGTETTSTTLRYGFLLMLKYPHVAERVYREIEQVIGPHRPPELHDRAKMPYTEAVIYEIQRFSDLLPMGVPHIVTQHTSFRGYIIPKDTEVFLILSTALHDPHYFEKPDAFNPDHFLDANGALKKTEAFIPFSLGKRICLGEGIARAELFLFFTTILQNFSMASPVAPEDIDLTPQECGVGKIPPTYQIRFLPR
UniProt P11712, whole entry: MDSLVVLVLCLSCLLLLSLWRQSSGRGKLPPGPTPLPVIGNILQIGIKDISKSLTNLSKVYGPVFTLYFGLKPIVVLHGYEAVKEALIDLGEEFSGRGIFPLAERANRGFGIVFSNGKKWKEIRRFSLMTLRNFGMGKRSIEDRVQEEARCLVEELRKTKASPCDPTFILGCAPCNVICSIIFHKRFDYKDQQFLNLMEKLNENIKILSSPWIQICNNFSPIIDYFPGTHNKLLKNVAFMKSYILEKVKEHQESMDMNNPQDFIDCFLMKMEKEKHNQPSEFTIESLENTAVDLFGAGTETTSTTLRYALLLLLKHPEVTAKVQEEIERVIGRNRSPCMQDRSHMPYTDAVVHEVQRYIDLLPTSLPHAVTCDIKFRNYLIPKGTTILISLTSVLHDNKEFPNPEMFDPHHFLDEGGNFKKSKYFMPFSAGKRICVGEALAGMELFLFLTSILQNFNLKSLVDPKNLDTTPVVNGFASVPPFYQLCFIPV
UniProt P10635, whole entry: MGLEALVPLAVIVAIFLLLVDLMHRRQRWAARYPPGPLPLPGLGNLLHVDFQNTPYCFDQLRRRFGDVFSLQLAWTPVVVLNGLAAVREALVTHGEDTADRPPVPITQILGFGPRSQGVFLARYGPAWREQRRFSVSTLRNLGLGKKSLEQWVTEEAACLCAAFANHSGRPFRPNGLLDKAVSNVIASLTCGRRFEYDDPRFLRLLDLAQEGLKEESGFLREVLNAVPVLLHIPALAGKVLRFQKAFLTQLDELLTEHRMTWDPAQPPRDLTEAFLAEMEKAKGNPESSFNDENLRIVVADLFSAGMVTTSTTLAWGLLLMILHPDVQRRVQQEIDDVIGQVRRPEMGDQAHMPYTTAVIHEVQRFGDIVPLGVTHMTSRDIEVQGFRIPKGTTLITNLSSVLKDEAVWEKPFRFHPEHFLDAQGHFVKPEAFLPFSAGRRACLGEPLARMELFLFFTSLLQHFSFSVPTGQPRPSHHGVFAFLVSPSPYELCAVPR

COc1cc(CNC(=O)CCCCC#Cc2ccccc2)ccc1O
CYP3A4/5 activity expressed as % Vehicle Control (CYP3A4/5 [1]; phenylcapsaicyn 0.005 μM): 96.5 % Vehicle Control
CYP3A4/5 activity expressed as % Vehicle Control (CYP3A4/5 [1]; phenylcapsaicyn 0.05 μM): 97.1 % Vehicle Control
CYP3A4/5 activity expressed as % Vehicle Control (CYP3A4/5 [1]; phenylcapsaicyn 0.5 μM): 98.2 % Vehicle Control
CYP3A4/5 activity expressed as % Vehicle Control (CYP3A4/5 [1]; phenylcapsaicyn 5.0 μM): 104.1 % Vehicle Control
CYP3A4/5 activity expressed as % Vehicle Control (CYP3A4/5 [1]; phenylcapsaicyn 50 μM): 97.8 % Vehicle Control
CYP2C19 activity expressed as % Vehicle Control (CYP2C19; phenylcapsaicyn 0.005 μM): 99.3 % Vehicle Control
CYP2C19 activity expressed as % Vehicle Control (CYP2C19; phenylcapsaicyn 0.05 μM): 97.7 % Vehicle Control
CYP2C19 activity expressed as % Vehicle Control (CYP2C19; phenylcapsaicyn 0.5 μM): 103.7 % Vehicle Control
CYP2C19 activity expressed as % Vehicle Control (CYP2C19; phenylcapsaicyn 5.0 μM): 99.4 % Vehicle Control
CYP2C19 activity expressed as % Vehicle Control (CYP2C19; phenylcapsaicyn 50 μM): 84.8 % Vehicle Control
CYP2C8 activity expressed as % Vehicle Control (CYP2C8; phenylcapsaicyn 0.005 μM): 102.8 % Vehicle Control
CYP2C8 activity expressed as % Vehicle Control (CYP2C8; phenylcapsaicyn 0.05 μM): 100.7 % Vehicle Control
CYP2C8 activity expressed as % Vehicle Control (CYP2C8; phenylcapsaicyn 0.5 μM): 100.9 % Vehicle Control
CYP2C8 activity expressed as % Vehicle Control (CYP2C8; phenylcapsaicyn 5.0 μM): 102.6 % Vehicle Control
CYP2C8 activity expressed as % Vehicle Control (CYP2C8; phenylcapsaicyn 50 μM): 97.8 % Vehicle Control
CYP3A4/5 activity expressed as % Vehicle Control (CYP3A4/5 [2]; phenylcapsaicyn 0.005 μM): 95.6 % Vehicle Control
CYP3A4/5 activity expressed as % Vehicle Control (CYP3A4/5 [2]; phenylcapsaicyn 0.05 μM): 100.4 % Vehicle Control
CYP3A4/5 activity expressed as % Vehicle Control (CYP3A4/5 [2]; phenylcapsaicyn 0.5 μM): 100.5 % Vehicle Control
CYP3A4/5 activity expressed as % Vehicle Control (CYP3A4/5 [2]; phenylcapsaicyn 5.0 μM): 101.3 % Vehicle Control
CYP3A4/5 activity expressed as % Vehicle Control (CYP3A4/5 [2]; phenylcapsaicyn 50 μM): 93.8 % Vehicle Control
CYP2B6 activity expressed as % Vehicle Control (CYP2B6; phenylcapsaicyn 0.005 μM): 92.1 % Vehicle Control
CYP2B6 activity expressed as % Vehicle Control (CYP2B6; phenylcapsaicyn 0.05 μM): 95.6 % Vehicle Control
CYP2B6 activity expressed as % Vehicle Control (CYP2B6; phenylcapsaicyn 0.5 μM): 94.2 % Vehicle Control
CYP2B6 activity expressed as % Vehicle Control (CYP2B6; phenylcapsaicyn 5.0 μM): 86.7 % Vehicle Control
CYP2B6 activity expressed as % Vehicle Control (CYP2B6; phenylcapsaicyn 50 μM): 75.3 % Vehicle Control
CYP2C9 activity expressed as % Vehicle Control (CYP2C9; phenylcapsaicyn 0.005 μM): 101.0 % Vehicle Control
CYP2C9 activity expressed as % Vehicle Control (CYP2C9; phenylcapsaicyn 0.05 μM): 102.9 % Vehicle Control
CYP2C9 activity expressed as % Vehicle Control (CYP2C9; phenylcapsaicyn 0.5 μM): 99.0 % Vehicle Control
CYP2C9 activity expressed as % Vehicle Control (CYP2C9; phenylcapsaicyn 5.0 μM): 99.9 % Vehicle Control
CYP2C9 activity expressed as % Vehicle Control (CYP2C9; phenylcapsaicyn 50 μM): 94.7 % Vehicle Control
CYP2D6 activity expressed as % Vehicle Control (CYP2D6; phenylcapsaicyn 0.005 μM): 99.2 % Vehicle Control
CYP2D6 activity expressed as % Vehicle Control (CYP2D6; phenylcapsaicyn 0.05 μM): 97.6 % Vehicle Control
CYP2D6 activity expressed as % Vehicle Control (CYP2D6; phenylcapsaicyn 0.5 μM): 72.7 % Vehicle Control
CYP2D6 activity expressed as % Vehicle Control (CYP2D6; phenylcapsaicyn 5.0 μM): 29.9 % Vehicle Control
CYP2D6 activity expressed as % Vehicle Control (CYP2D6; phenylcapsaicyn 50 μM): 14.8 % Vehicle Control
IC50 (CYP2D6): 1120 nM
IC50 (CYP2D6; listed as phenylcapsaicyn): 1100 nM
Inhibition of CYP2D6 in words (CYP2D6; relative to positive control quinidine, up to 50 μM): moderate inhibitor

Reference: patent publication US20260256919A1, “BIOENHANCERS” (priority 2022, published 2026)
